According to paper PMC6128740 (European journal of drug metabolism and pharmacokinetics, 2018):
Where two headings read alike, the source gives them in different places.

Columns and labels:
[1] = Tissue distribution of 14C-C3 in mice; format: in vivo, C57BL/6J mice
[2] = parameters: species or system Macaca fascicularis; conditions: cynomolgus monkey, in vivo
[3] = mouse, in vivo
[4] = tested on: mice
[5] = tested on: Macaca fascicularis monkeys; conditions: monkeys treated for two months, n=5
[6] = Kinetics of 14C-C3 in mouse blood after bolus or osmotic pump administration; conditions: 1.1 mg/kg
[7] = 144 hr after single i.p. 1.1 mg/kg

With e,e,e, tris malonic acid C60 [C3] the “radioactivity remaining in each kidney” value [1, 7] was “about 2.2 % of the dose”, the “radioactivity remaining in the whole liver” value [1, 7] was “about 10.6 % of the administered dose” and the C3 in bone ([1]; even with chronic administration) was “only trace amounts”. For the same substance, the plasma half-life [2] was 8 ± 1 h, the plasma half-life [3] was 8.2 ± 0.2 h and the “metabolism of the compound” value (mice, after 7 days of treatment) was “minimal metabolism”. The “HPLC radiochromatogram of plasma vs original stock (in vivo stability)” value (plasma 2 h and 18 h after single 1.1 mg/kg i.p.) was “essentially identical to the original C3 stock”, the LD50 ([4]; chronic delivery for 2 months) was over 30 mg/kg/day and the deaths ([4]; chronic delivery of 30 mg/kg/day for 2 months) was “no deaths”. For the same substance, the LD50 ([4]; single i.p. injection) was 80 mg/kg, the “EKG interval PR” value ([5]; mean ± SD) was 0.08 ± .00 s and the “EKG interval Q-T” value ([5]; mean ± SD) was 0.20 ± .04 s. For the same substance, the “Heart Rate (range)” value [5] was 83–103 bpm, the “k (first order rate constant)” value ([6]; i.p.) was 0.087 ± 0.007 h⁻¹ and the “k (first order rate constant)” value ([6]; i.v.) was 0.085 ± 0.002 h⁻¹. For the same substance, the t1/2 ([6]; i.v.0-1: data within the first hour after i.v. injection) was 0.8 ± 0.1 h and the “k (first order rate constant)” value ([6]; i.v.0-1: first hour after i.v. injection) was 0.90 ± 0.12 h⁻¹.
